The values below come from ChEMBL document CHEMBL4879553, “Data for DCP probe BAY1125976” (2021).

By UniProt entry, the sequences of proteins in these tests, tags left out. Where a name states a change or a piece, a line headed by the entry shows the natural chain unless it says otherwise.
UniProt P31751: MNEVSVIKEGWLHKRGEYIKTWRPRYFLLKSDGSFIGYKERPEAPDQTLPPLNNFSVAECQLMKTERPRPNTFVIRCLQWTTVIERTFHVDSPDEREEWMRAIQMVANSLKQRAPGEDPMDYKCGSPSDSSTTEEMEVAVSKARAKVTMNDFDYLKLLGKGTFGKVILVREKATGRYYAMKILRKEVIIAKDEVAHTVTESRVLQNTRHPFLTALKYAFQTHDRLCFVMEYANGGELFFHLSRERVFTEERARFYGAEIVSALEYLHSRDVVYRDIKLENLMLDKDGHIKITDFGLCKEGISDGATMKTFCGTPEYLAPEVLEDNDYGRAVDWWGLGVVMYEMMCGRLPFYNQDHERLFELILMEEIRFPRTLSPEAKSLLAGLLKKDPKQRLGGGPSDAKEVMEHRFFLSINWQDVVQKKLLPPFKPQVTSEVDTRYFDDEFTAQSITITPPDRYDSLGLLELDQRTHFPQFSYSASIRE

Each structure is given as a SMILES string.

The experiment deals with RAC-beta serine/threonine-protein kinase (Homo sapiens, UniProt P31751). Put plainly: Biochemical assay (AKT2).

Turning to `NC1(c2ccc(-c3nc4c(O)ccnn4c3-c3ccccc3)cc2)CCC1`, the IC50 (as a rule, the point on the concentration scale where inhibition reaches its midpoint) is 3.84 µM (not active).
